Experiment: Selectivity ratio of Ki for human nNOS to Ki for rat nNOS

Q: With Nc1cccc(C[C@H]2CNC[C@H]2OCCNCCc2cccc(F)c2)n1 as the compound, how does the Ratio Ki read?
A: The Ratio Ki was 8.2.

Q: Which Ratio Ki does the source give for Nc1cccc(C[C@@H]2CNC[C@@H]2OCCNCCc2cccc(F)c2)n1 here?
A: The Ratio Ki was 5.8.
